This experiment has as its target Swedish (K670N/M671L) mutant human APP695 (human). The experiment is described as follows: FRET or BRET. For orientation: Bioluminescence resonance energy transfer reports proximity on the nanometre scale.

In turn, “Presenilin 1 (PS1), endogenous in CHO cells (from UniProt G3HNF2 1-467) (natural protein)” returned an Alexa 488 donor lifetime (FLIM), cells with N-cadherin of 1640 ps; an Alexa 488 donor lifetime (FLIM), cells without N-cadherin of 1790 ps; an Alexa 488 donor lifetime (FLIM), with control IgG of 1680 ps.
